According to PubChem BioAssay AID717 (Columbia University Molecular Screening Center, 2007):
This is a selection; strong and weak results do not stand in their true shares. The source made the active and inactive calls. Rule as the data show it: active = activation above about 37%; inactive = the rest.

Chains of the proteins cited; added tags and fusions are not shown.
UniProt P34913, whole entry: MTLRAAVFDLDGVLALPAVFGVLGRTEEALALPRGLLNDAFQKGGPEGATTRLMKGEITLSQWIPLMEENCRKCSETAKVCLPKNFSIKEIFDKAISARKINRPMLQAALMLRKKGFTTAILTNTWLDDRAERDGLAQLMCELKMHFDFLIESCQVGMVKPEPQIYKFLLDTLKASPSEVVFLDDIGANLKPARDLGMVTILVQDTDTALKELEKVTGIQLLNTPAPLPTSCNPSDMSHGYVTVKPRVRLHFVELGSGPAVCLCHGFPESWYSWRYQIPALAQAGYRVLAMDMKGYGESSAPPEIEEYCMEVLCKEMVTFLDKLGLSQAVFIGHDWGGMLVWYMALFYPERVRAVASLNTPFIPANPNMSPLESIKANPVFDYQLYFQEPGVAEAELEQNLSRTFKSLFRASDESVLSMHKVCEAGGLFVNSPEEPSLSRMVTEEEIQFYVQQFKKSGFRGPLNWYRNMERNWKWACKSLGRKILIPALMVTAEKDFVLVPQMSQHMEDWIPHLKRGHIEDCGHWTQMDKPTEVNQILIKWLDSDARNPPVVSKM

target: Bifunctional epoxide hydrolase 2 (Homo sapiens) (UniProt P34913); experiment: sEH enzyme activity enhancers – biochemical, human sEH, primary screen (AID 717); settings: purified human sEH enzymatic activity, activator screen; at 2 µM; stronger effect = higher value

SMILES	activation
N/C(=N\O)c1c(N)no[n+]1[O-]	inactive: 3.8%
c1ccc(CN2CCC(Nc3ccccc3)CC2)cc1	inactive: -3.6%
CCC(CO)(C(=O)OC1CN2CCC1CC2)c1ccccc1 (stereo not drawn)	inactive: 1.2%
CCOc1ncccc1C(=O)NCC1(N2CCOCC2)CCCCC1	inactive: 4.8%
O=C(NCC1(N2CCOCC2)CCCCC1)c1cc2ccccc2o1	inactive: 8.7%
O=C(OC1CN2CCC1CC2)C1c2ccccc2Oc2ccccc21 (stereo not drawn)	inactive: 7.6%
O=C(NCC1(N2CCOCC2)CCCCC1)c1cc(=O)[nH]c2ccccc12	inactive: -2.8%
CN1CCC(Nc2cccc(F)c2)CC1	inactive: 13.1%
